Laboratory results from patent publication US20030001133A1, “Phosphate ester base stocks comprising mixed n-butyl/isobutyl phosphate esters and aircraft hydraulic fluids comprising the same” (published 2003).

How the values were obtained:
[1] = stated as known; cited from earlier work
[2] = Density of blends (base stock plus additives); conditions: 25° C.; base stock after adding antioxidants, 6 wt. % acid scavenger, 8 wt. % triaryl phosphate, 14 wt. % VI improver
[3] = Viscosity of phosphate esters; conditions: phosphate ester without additives
[4] = Density of phosphate esters; conditions: 25° C.; phosphate ester without additives
[5] = Viscosity of blends (base stock plus additives); conditions: base stock after adding antioxidants, acid scavenger, triaryl phosphate, VI improver

## CCCCOP(=O)(OCCCC)OCCCC
[1]
  Skin irritation: skin irritant
[2]
  Density: 0.9859
[3]; 40° C.
  Viscosity: 2.55 cSt
[3]; −54° C.
  Viscosity: 124 cSt
[4]
  Density: 0.9725
[5]; 40° C.
  Viscosity: 9.12 cSt
[5]; 100° C.
  Viscosity: 3.28 cSt
[5]; −54° C.
  Viscosity: 1013 cSt
